Our source for the Kd values is paper PMC6467916 (Scientific Reports, 2019).

The target in assay [1] is T1, mature IL-18 (interleukin-18, residues 37-193) (human, UniProt Q14116-1 37-193).
T1 construct: human interleukin-18, mature region, residues 37-193 of the precursor proIL-18 (NM_001562.3, residues 1-193); made by deleting residues 1-36 from the proIL-18 construct; Unlabelled or uniformly 15N-labelled, depending on the experiment; also called mature region of IL-18; [15N]-IL-18; source: in the caspase-1 experiment generated in situ from purified proIL-18 by caspase-1; not shown: His6, …
T1 sequence (looked up): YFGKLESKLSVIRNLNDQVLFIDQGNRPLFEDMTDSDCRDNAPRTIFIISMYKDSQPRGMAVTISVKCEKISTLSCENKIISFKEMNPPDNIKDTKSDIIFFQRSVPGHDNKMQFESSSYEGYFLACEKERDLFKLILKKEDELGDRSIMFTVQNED
Kind of assay: NMR titration; 1H-15N spectra of [15N]-proIL-18PP (28.4 nmol in 300 uL) alone or with 320 uM (three molar equivalents) non-labelled IL-18; NMR buffer (20 mM potassium phosphate pH 6.0, 150 mM KCl, 1 mM TCEP); 25 °C; KD from cross-peak intensities. To be noted: both partners purified.

The target in assay [2] is T1, mature IL-18 (interleukin-18, residues …). Kind of assay: NMR (1H-15N SOFAST HMQC) with in situ caspase-1 cleavage; 200 uM [15N]-proIL-18 cut by 10 units caspase-1; spectra over about 24 h; 37 °C; caspase-1 reaction buffer (20 mM HEPES-Na pH 7.4, 100 mM NaCl, 1 mM EDTA, 10 mM DTT); KD estimated from the intensity left in proIL-18-like cross-peaks. To be noted: both partners purified.

B1: proIL-18PP (propeptide of proIL-18, residues 1-36) (peptide, UniProt Q14116-1 1-36, looked up)
peptide: MAAEPVEDNCINFVAMKFIDNTLYFIAEDDENLESD
notes: human interleukin-18 precursor (proIL-18, NM_001562.3), propeptide residues 1-36; made by replacing Y37 of the proIL-18 construct with a stop codon; Recombinant peptide, unlabelled or 15N-labelled, depending on the experiment; also called [15N]-proIL-18PP; [13C/15N]-proIL-18PP; source: in the caspase-1 experiment generated in situ from purified proIL-18 by caspase-1; not shown: His6, N-terminal, …
As a reminder, the Kd is the constant that tells how readily two partners part at equilibrium. Consider B1, for which the Kd in assay [1] was above 36 µM; in assay [2], around 100 µM.
